This assay deals with GABA-A receptor; anion channel.

`CCOC(=O)c1cc2c(cn1)[nH]c1ccccc12` yielded a negative-log IC50 (pIC50) of 8.3.

The term pIC50 denotes the negative decadic logarithm of the IC50, by convention in mol/L. Higher therefore signals a small IC50.

(Values after ChEMBL document CHEMBL1130277, “Three-dimensional quantitative structure-activity relationships from molecular similarity matrices and genetic neural networks. 2. Applications” (J Med Chem, 1997).)
